{"sequences": {"note": "The chains behind the UniProt entries cited, without tags or fusion partners.", "UniProt O14842, whole entry": "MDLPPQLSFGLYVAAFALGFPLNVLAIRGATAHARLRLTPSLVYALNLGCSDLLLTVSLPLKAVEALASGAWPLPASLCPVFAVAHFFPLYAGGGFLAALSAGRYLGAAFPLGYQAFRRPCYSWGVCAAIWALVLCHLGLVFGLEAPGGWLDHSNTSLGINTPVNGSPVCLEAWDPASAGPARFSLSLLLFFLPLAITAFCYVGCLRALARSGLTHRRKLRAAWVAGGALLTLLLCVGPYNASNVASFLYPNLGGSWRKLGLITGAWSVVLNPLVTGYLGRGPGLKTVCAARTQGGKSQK"}, "source": "patent EP4682145A1", "about": "“BENZOHETEROCYCLIC COMPOUND, AND PREPARATION METHOD THEREFOR AND USE THEREOF” (Cascade Pharmaceuticals, Inc., priority 2023, dated 2024)", "target": "human FFAR1 (GPR40) (Homo sapiens, UniProt O14842)", "assay": "NFAT-RE-based reporter gene activity assay (Dual-Glo luciferase) for GPR40 agonistic activity in co-transfected HEK293T cells", "format": "cell-based", "details": "4-hour treatment, tested form: free acid"}
{"molecule": "COc1cccc(N2CCC(c3oc4cc(C(CC(=O)O)C5CC5)ccc4c3C(=O)NC3CC4CCC3C4)CC2)c1", "note": "(centres unmarked)", "values": [{"measurement": "Efficacy (%)", "setting": "class symbols", "result": "†† (150 ≥ Efficacy (%) > 100)"}, {"measurement": "EC50", "result": "100 to 500", "unit": "nM"}]}
